Test results taken from patent US6683078B2, “Use of sulfonyl aryl or heteroaryl hydroxamic acids and derivatives thereof as aggrecanase inhibitors” (priority 2001, dated 2004).

By UniProt entry, the sequences of proteins in these tests, tags left out. Residues count along the entry.
UniProt P03956, 100-469 limits assumed: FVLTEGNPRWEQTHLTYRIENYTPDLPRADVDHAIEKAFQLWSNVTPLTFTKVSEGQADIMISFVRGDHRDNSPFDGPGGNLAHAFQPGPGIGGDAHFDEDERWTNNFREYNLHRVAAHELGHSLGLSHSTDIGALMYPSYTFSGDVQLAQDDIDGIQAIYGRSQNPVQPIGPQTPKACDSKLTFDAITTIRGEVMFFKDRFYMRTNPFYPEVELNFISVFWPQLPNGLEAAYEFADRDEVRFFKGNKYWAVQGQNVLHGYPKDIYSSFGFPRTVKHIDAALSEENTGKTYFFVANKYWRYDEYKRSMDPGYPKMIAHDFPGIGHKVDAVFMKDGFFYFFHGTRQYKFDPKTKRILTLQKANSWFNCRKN
UniProt P08253, 110-660 limits assumed: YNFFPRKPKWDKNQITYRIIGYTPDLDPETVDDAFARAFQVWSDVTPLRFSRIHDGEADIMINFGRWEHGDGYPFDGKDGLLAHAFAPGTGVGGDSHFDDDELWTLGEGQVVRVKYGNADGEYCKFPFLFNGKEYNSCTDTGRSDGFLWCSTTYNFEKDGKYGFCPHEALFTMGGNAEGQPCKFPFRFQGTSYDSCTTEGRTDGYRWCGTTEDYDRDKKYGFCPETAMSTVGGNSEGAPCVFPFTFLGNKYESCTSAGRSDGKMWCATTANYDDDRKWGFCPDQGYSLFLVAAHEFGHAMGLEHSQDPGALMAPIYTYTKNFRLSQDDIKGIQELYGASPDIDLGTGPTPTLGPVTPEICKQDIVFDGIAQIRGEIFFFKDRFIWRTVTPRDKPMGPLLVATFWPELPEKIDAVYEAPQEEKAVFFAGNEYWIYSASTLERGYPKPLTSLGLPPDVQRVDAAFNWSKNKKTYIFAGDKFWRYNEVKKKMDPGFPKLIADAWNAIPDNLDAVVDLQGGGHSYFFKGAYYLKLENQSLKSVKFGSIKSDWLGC

Tests used:
Assay in all cases: In vitro MMP inhibition, fluorogenic peptide substrate
Recombinant human MMP-1 = Recombinant human MMP-1 (Homo sapiens, UniProt P03956); conditions: read-out: MMP-1 IC50; Inhibition Table A
Recombinant human MMP-2 = Recombinant human MMP-2 (Homo sapiens, UniProt P08253); conditions: read-out: MMP-2 IC50; Inhibition Table A
Recombinant human MMP-13 = Recombinant human MMP-13 (Homo sapiens, UniProt P45452); format: biochemical; conditions: read-out: MMP-13 IC50; Inhibition Table A

Compound `O=C(O)c1ccccc1S(=O)(=O)N1CCC(Oc2ccc(C(F)(F)F)cc2)CC1` has an IC50 (Recombinant human MMP-1) greater than 10 µM, an IC50 (Recombinant human MMP-2) of 3.3 µM and an IC50 (Recombinant human MMP-13) of 3.8 µM.
